# Assays:
# Chains of the proteins cited; added tags and fusions are not shown.
# UniProt Q923Y8, whole entry: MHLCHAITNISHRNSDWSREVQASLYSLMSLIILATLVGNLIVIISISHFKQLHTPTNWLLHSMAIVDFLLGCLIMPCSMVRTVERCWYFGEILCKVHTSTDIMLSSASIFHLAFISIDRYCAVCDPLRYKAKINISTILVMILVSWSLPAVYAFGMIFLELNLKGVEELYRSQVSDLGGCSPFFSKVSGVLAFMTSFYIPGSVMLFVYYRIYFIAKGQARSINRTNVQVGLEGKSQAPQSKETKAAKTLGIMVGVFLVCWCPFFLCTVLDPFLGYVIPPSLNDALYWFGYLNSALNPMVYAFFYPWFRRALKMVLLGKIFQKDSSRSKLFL
# UniProt Q923Y9, whole entry: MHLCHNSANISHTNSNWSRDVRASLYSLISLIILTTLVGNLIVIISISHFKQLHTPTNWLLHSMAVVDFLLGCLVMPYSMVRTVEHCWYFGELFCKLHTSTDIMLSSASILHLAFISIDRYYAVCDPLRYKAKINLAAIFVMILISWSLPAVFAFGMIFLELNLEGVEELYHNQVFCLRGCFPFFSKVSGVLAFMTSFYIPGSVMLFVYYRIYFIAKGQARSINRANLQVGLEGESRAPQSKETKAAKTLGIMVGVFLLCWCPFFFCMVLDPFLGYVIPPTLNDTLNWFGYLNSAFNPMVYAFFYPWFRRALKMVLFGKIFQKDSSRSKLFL
# mouse TAAR1 = mouse TAAR1 (Mus musculus (Mouse), UniProt Q923Y8); assay: Radioligand binding assay on mouse TAAR1; conditions: mouse TAAR1, HEK-293 membranes; first value of the mouse/rat pair
# Procedure: (§1) Construction of TAAR Expression Plasmids and Stably Transfected Cell Lines
# (§2) For the construction of expression plasmids the coding sequences of human, rat and mouse TAAR 1 were amplified from genomic DNA essentially as described by Lindemann et al..
# (§3) The Expand High Fidelity PCR System (Roche Diagnostics) was used with 1.5 mM Mg^2+ and purified PCR products were cloned into pCR2.1-TOPO cloning vector (Invitrogen) following the instructions of the manufacturer. PCR products were subcloned into the pIRESneo2 vector (BD Clontech, Palo Alto, Calif.), and expression vectors were sequence verified before introduction in cell lines.
# (§4) HEK293 cells (ATCC # CRL-1573) were cultured essentially as described by Lindemann et al. (2005). […]
# (§5) HEK-293 cells stably expressing mouse TAAR1 were maintained at 37° C. and 5% CO2 in DMEM high glucose medium, containing fetal calf serum (10%, heat inactivated for 30 min at 56° C.), penicillin/streptomycin (1%), and 375 μg/ml geneticin (Gibco). […] With each new membrane batch the dissociation constant (Kd) was determined via a saturation curve. […] After addition of 45 μl of Microscint 40 (PerkinElmer) the Unifilter-96 plate was sealed and after 1 hr the radioactivity counted using a TopCount Microplate Scintillation Counter (Packard Instrument Company).
# rat TAAR1 = rat TAAR1 (Rattus norvegicus (Rat), UniProt Q923Y9); assay: Radioligand binding assay on rat TAAR1; conditions: rat TAAR1, HEK-293 membranes; second value of the mouse/rat pair
# Procedure: as §1, §2, §3, §4
# as §5, with “rat” for “mouse”
compound,measurement,setting,value
"CCc1cnc(Nc2ccc3c(c2)CCN2CCNC[C@@H]32)nc1 [Example 25, (11bR)-N-(5-ethylpyrimidin-2-yl)-2,3,4,6,7,11b-hexahydro-1H-pyrazino[2,1-a]isoquinolin-9-amine]",Ki,mouse TAAR1,0.0349 µM
same,Ki,rat TAAR1,0.0438 µM

# — patent publication US9828374B2, “Substituted pyrazino[2,2-a]isoquinoline derivatives” (Hoffmann-La Roche Inc., priority 2014, dated 2017)
